# Reference: PubChem BioAssay AID651768 (National Center for Advancing Translational Sciences (NCATS), 2012)
# Amino acid sequences for entries named in this document (tags omitted).
# UniProt Q14191, whole entry: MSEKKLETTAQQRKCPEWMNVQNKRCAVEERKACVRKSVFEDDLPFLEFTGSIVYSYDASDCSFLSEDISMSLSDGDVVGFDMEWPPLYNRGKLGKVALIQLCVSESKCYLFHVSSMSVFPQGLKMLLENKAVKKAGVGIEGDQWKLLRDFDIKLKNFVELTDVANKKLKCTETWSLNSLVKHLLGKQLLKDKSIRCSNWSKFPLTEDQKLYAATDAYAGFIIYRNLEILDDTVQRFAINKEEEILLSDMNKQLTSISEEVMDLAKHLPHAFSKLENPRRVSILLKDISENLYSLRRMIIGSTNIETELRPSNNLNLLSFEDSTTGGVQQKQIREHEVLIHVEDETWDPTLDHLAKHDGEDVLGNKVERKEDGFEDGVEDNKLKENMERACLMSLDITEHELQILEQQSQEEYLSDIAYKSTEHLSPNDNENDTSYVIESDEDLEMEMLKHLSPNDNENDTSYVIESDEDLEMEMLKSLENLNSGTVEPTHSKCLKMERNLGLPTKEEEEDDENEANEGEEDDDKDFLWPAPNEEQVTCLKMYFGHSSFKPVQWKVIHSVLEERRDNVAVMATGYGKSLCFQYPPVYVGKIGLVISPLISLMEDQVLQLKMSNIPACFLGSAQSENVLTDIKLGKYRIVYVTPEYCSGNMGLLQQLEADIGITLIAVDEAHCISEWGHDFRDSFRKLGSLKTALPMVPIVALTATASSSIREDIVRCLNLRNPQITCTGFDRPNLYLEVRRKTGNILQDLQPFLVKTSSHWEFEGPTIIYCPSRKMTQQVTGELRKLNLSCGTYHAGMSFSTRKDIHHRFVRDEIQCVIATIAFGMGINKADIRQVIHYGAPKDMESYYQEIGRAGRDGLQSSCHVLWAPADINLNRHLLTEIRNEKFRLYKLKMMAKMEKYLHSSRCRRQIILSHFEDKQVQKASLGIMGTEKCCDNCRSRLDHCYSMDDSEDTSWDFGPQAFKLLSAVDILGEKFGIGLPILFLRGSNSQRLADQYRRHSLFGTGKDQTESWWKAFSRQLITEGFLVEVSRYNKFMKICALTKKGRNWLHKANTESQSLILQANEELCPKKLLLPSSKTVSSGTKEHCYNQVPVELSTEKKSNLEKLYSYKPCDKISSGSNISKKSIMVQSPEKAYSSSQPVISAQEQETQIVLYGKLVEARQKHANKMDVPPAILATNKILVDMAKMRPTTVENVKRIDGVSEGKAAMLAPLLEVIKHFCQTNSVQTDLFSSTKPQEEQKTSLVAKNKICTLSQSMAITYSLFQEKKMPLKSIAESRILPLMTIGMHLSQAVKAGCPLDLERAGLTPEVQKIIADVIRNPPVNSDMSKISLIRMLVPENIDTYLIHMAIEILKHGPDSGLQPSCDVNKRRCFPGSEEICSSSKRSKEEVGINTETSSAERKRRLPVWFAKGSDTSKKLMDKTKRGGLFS
# The list shows a part of the results, in another mix than the full data. Some structures show a salt or complex split into parts, the way the source records it. Calls of active or inactive are those of the source. The call rests on the fitted dose curve; in most records, active means well fitted inhibition curve with a large enough effect; inconclusive means small, poorly fitted or top-dose-only effect; inactive means no such curve, though single readings can be large or run the other way.
# Molecular target: Bifunctional 3'-5' exonuclease/ATP-dependent helicase WRN (Homo sapiens) (UniProt Q14191)
# Experiment: qHTS for Inhibitors of WRN Helicase; further: nearly all actives have a fitted effect of over 55% in size
# Conditions: WRN helicase unwinding, fluorescent forked duplex, kinetic; at 114 µM (top of the series) unless noted
# How it was run: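 Screening of the MLSMR collection measured strand separation of a quenched forked DNA duplex (100 nM) by 20 nM WRN with 2 mM ATP, all final. Compounds were preincubated with enzyme 15 min at room temperature.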
# On the % scale 0 is the no-effect control and ±100 the full control effect.
row,SMILES,"activity change, negative = inhibition"
1,CCN(CC)CCCNc1ccccc1[N+](=O)[O-].O=[N+]([O-])c1cc([N+](=O)[O-])c(O)c([N+](=O)[O-])c1,inactive: 5.93%
2,CCC(c1nnnn1C(C)(C)C)N1CCC(n2c(=O)[nH]c3ccccc32)CC1 (stereo not drawn),inactive: -7.13%
3,O=C(NCC1(N2CCOCC2)CCCCC1)c1cc(F)c(F)cc1Cl,inactive: 2.36%
4,COc1cc(OC)c(C(=O)NCC2(N(C)C)CCCCC2)cc1OC,inactive: -8.11% [at 57.1 µM]
5,CCCCn1nnnc1C(c1ccnc2ccccc12)N1CCC(n2c(=O)[nH]c3ccccc32)CC1 (stereo not drawn),inactive: 0.26%
6,CC(C)c1ccc(NC2CCN(C(=O)OC(C)(C)C)CC2)cc1,inactive: -7.22%
7,CCCCn1nnnc1C(c1ccccc1OC(F)(F)F)N1CCC(n2c(=O)[nH]c3ccccc32)CC1 (stereo not drawn),inactive: -11%
8,CN(C)c1cccc(C(=O)NCC2(N3CCCCC3)CCCCC2)c1,inactive: 4.66%
9,O=[N+]([O-])c1cc([N+](=O)[O-])c(OC2CCCCC2O)c([N+](=O)[O-])c1 (stereo not drawn),inactive: -12.9%
10,COc1ccc(CN(CCCl)CCCl)cc1Cl,inactive: 3.05%
11,COc1ccc(C(c2nnnn2C2CCCC2)N2CCC(n3c(=O)[nH]c4ccccc43)CC2)cc1 (stereo not drawn),inactive: 2.01%
12,O=[N+]([O-])c1cc([N+](=O)[O-])c(Nc2ccc(Cl)cc2)c([N+](=O)[O-])c1,inactive: -13.1%
13,CCCOc1ccc(C(=O)NCC2(N(C)C)CCCCC2)cc1OC,inactive: 13.8%
14,Cc1ccc(C(=O)NCC2(N(C)C)CCCCC2)o1,inactive: 4.76%
15,O=C(OC1CN2CCC1CC2)c1ccc([N+](=O)[O-])cc1 (stereo not drawn),inactive: -5.61%
16,CN1CCC(Nc2cccc(F)c2)CC1,inactive: 0.619%
17,COc1ccc2c(c1O)-c1c(O)c(OC)cc3c1[C@H](C2)[N+](C)(C)CC3.O=[N+]([O-])c1cc([N+](=O)[O-])c([O-])c([N+](=O)[O-])c1[O-],inactive: -5.19%

row,SMILES,"activity change, negative = inhibition"
1,O=C(NCC1(N2CCCCC2)CCCCC1)c1cncc(Br)c1,inactive: -18.1%
2,O=c1[nH]c2ccccc2n1C1CCN(C(c2ccccc2OC(F)(F)F)c2nnnn2C2CCCC2)CC1 (stereo not drawn),inactive: -13.3%
3,N#CC1(Nc2ccccc2)CCN(CCc2ccccc2)CC1,inactive: 8.73%
4,CCN1CCC(Nc2ccc(Cl)cc2)CC1,inactive: 0.827%
5,CSc1ccc(C(=O)NCC2(N3CCOCC3)CCCCC2)cc1,inactive: 18.8%
6,O=C(NCC1(N2CCCCC2)CCCCC1)c1cccc([N+](=O)[O-])c1,inactive: 4.39%
7,O=C(NCC1(N2CCCCC2)CCCCC1)c1ccc(OC(F)F)cc1,inactive: 1.93%
8,CC(C)(C)n1nnnc1C(c1ccccc1OC(F)(F)F)N1CCC(n2c(=O)[nH]c3ccccc32)CC1 (stereo not drawn),inactive: -5.87%
9,O=C(NCC1(N2CCOCC2)CCCCC1)c1cc(=O)[nH]c2ccccc12,inactive: 12%
10,COc1cc(C(=O)NCC2(N3CCCCC3)CCCCC2)ccc1OC(F)F,inactive: -6.49%
11,CC(C)c1ccc(C(=O)NCC2(N3CCOCC3)CCCCC2)cc1,inactive: -7.01%
12,COc1ccc(NC2CCN(C(=O)OC(C)(C)C)CC2)cc1,inactive: -2.37%
13,CN1CCN(CCOC(=O)C(O)(c2ccccc2)c2ccccc2)CC1,inactive: 5%
14,CCCCn1nnnc1C(c1cccc2ccccc12)N1CCC(n2c(=O)[nH]c3ccccc32)CC1 (stereo not drawn),inactive: -7.76%
15,O=[N+]([O-])c1cc([N+](=O)[O-])c(NCC2CCS(=O)(=O)C2)c([N+](=O)[O-])c1 (stereo not drawn),inactive: -12.9%
16,O=C(NCC1(N2CCCCC2)CCCCC1)c1cccc(C(F)(F)F)c1,inactive: -2.16%
